Results on 59 compounds are retold here after PubChem BioAssay AID1230 (PCMD, 2008).

Chains of the proteins cited; added tags and fusions are not shown.
UniProt Q00987, whole entry: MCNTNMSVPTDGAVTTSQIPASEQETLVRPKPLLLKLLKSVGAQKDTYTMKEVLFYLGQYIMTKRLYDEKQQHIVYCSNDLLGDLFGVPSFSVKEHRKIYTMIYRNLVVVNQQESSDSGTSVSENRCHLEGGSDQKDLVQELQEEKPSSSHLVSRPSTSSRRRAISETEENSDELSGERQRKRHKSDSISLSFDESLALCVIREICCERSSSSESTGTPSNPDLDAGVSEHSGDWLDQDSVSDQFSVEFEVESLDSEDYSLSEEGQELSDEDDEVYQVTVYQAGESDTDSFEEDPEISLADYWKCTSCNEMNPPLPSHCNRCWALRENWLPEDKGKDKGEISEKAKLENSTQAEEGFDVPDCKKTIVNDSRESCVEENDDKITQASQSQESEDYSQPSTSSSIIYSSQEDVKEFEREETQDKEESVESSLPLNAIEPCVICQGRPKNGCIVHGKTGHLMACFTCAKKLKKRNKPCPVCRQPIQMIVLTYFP

Only a part is listed here, and it is no random draw. Some salts and complexes are drawn in separate pieces, as the source files them; their charges need not balance. Active and inactive are the calls of the source.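 Rule for the calls: active = signal enhancement of 30% or more; inactive = the rest.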

For the assay, the target named is E3 ubiquitin-protein ligase Mdm2 (Homo sapiens) (UniProt Q00987). The assay is described as follows: increase of MDM2 autoubiquitination reporter luminescence – cell-based, 1536-well, MDM2 E3 ligase inhibitor project, primary screen (AID 1230).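 Note: higher signal means inhibition of MDM2 E3 ligase activity.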 The following applies: cell-based MDM2 ubiquitination luciferase reporter, 2 h; at 5 µM; hits give high values; 0 = plate control, 100 = twice control, blank-subtracted. The procedure, abridged: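 test system = mammalian cells stably expressing self-ubiquitinating, self-degrading MDM2 E3–luciferase fusion | quantity = 2000 cells/well | incubation = cell settling 4 h, compound treatment 2 h, both 37 °C | signal = luminescence with SteadyLite reagent, 15 min at room temperature | evaluation = % enhancement relative to plate controls after blank subtraction | benchmarks = plate controls and plate blanks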
A general note: In a reporter assay the amount or activity of a reporter protein is the signal.
In the case of `CC(C)(C)c1ccc(OP(C)(=O)O)cc1`, the signal enhancement is inactive: -15.3%.
With `COc1ccccc1OP(C)(=O)Nc1ccccc1Br` (centres undefined) the figure was inactive: -1.98%; with `CP(=O)(Nc1ccc(Cl)cc1)Oc1ccc(F)cc1` (centres undefined), inactive: 21%; with `CN(C)C(=O)c1c([N+](=O)[O-])cc([N+](=O)[O-])cc1[N+](=O)[O-]`, inactive: 9.58%.
The same measure for `CCN(CC)CC(O)COC(=O)C(O)(c1ccccc1)C1CCCCC1` (centres undefined): inactive: -19.8%.
Take `COc1ccc(OP(C)(=O)Nc2ccc(Br)cc2)cc1` (centres undefined): the signal enhancement was inactive: -6.97%.
As for `O=C(OCCCN1CCCC1)C(O)(c1ccccc1)C1CCCCC1` (centres undefined), the signal enhancement is inactive: -8.98%.
The same measure for `CP(=O)(Oc1ccccc1)N1CCOC1=O` (centres undefined): inactive: 8.03%.
For the compound `CCc1ccc(OP(C)(=O)Nc2cccnc2)cc1` (centres undefined), the signal enhancement was inactive: -5.46%.
The same measure for `CCOC(=O)c1ccc(NP(C)(=O)Oc2ccc(Cl)cc2)cc1` (centres undefined): inactive: 0.43%.
With `CP(=O)(OC12CC3CC(CC(C3)C1)C2)OC12CC3CC(CC(C3)C1)C2`, the signal enhancement is inactive: -1.56%.
The same measure for `Cc1nc2ccc3ccccc3c2o1.O=[N+]([O-])c1cc([N+](=O)[O-])c(O)c([N+](=O)[O-])c1`: inactive: -16.1%; for `CP(=O)(OCCOc1ccccc1)OCCOc1ccccc1`: inactive: -2.23%.
With `CP(=O)(Nc1ccc(Cl)cc1Cl)Oc1ccccc1` (centres undefined) the figure was inactive: 7.35%; with `Cc1cc(C)cc(OP(C)(=O)Nc2cccc(C(F)(F)F)c2)c1` (centres undefined), inactive: 0.3%.
The same measure for `COc1ccccc1OP(C)(=O)Nc1ccc(C)c(C)c1` (centres undefined): inactive: -13.2%; for `COc1ccc(OP(C)(=O)Nc2ccccc2Br)cc1` (centres undefined): inactive: -4.07%.
Take `O=[N+]([O-])c1cc([N+](=O)[O-])c(Nc2ccccn2)c([N+](=O)[O-])c1`: the signal enhancement is inactive: 7.73%.
On to `Cc1c(NP(C)(=O)Oc2ccc(C(C)C)cc2)c(=O)n(-c2ccccc2)n1C` (centres undefined), for which the signal enhancement is inactive: -15.3%.
With `CP(=O)(Nc1ccccn1)Oc1ccccc1` (centres undefined) the figure was inactive: -7.65%.
The same measure for `COc1ccccc1OP(C)(=O)Nc1ccc(C)cc1C` (centres undefined): inactive: -9.69%.
With `CCc1ccc(OP(C)(=O)O)cc1` the figure was inactive: -21.8%; with `COc1ccccc1OP(C)(=O)Nc1ccc(Br)cc1` (centres undefined), inactive: -4.12%.
On to `COc1ccc(OP(C)(=O)Nc2ccccn2)cc1` (centres undefined), for which the signal enhancement was inactive: -13.9%.
The same measure for `CN(C)CCOC(=O)C(O)(c1ccccc1)C1CCCC1` (centres undefined): inactive: -12.9%; for `O=C(OC1CN2CCC1CC2)c1ccc([N+](=O)[O-])cc1` (centres undefined): inactive: -6.7%; for `O=C(OCCN1CCN(CCOCc2ccccc2)CC1)C(O)(c1ccccc1)c1ccccc1`: inactive: -6.6%.
As for `COc1ccc2c(c1O)-c1c(O)c(OC)cc3c1[C@H](C2)[N+](C)(C)CC3.O=[N+]([O-])c1cc([N+](=O)[O-])c([O-])c([N+](=O)[O-])c1[O-]`, the signal enhancement was inactive: -3.03%.
With `CP(=O)(Nc1ccccc1F)Oc1ccccc1` (centres undefined) the figure was inactive: -20.8%; with `CC(C)c1ccc(OP(C)(=O)Nc2ccc(SC(F)(F)F)cc2)cc1` (centres undefined), inactive: 9.28%; with `CCN(CC)CCCOC(=O)C(O)(c1ccccc1)C1CCCCC1` (centres undefined), inactive: -10.4%.
With `CP(=O)(Nc1ccccc1)Oc1ccc(F)cc1` (centres undefined) the figure was inactive: -19.5%.
With `CCCCCOc1ccc(NP(C)(=O)Oc2ccc(Cl)cc2Cl)cc1` (centres undefined) the figure was inactive: -19.3%; with `CCOC(=O)c1ccc(NP(C)(=O)Oc2ccc(F)cc2)cc1` (centres undefined), inactive: -46.1%.
In the case of `COc1ccc(OP(C)(=O)Nc2ccc(SC(F)(F)F)cc2)cc1` (centres undefined), the signal enhancement is inactive: -1.74%.
Consider `O=[N+]([O-])c1ccc(OP2(=O)COCCO2)cc1` (centres undefined), for which the signal enhancement is inactive: -13.8%.
The same measure for `Cc1cc(-c2cccc3ccccc23)c(C)cn1.O=[N+]([O-])c1cc([N+](=O)[O-])c(O)c([N+](=O)[O-])c1`: inactive: 2.68%; for `O=[N+]([O-])c1cc([N+](=O)[O-])c(NCC2CCS(=O)(=O)C2)c([N+](=O)[O-])c1` (centres undefined): inactive: -5.45%.
With `COc1ccc(OP(C)(=O)Nc2cccc(Br)c2)cc1` (centres undefined) the figure was inactive: -5.57%; with `CN(C)CCOC(=O)C(O)(c1ccccc1)C1CCCCC1` (centres undefined), inactive: -18.6%.
On to `COc1ccc(NP(C)(=O)Oc2ccccc2OC)cc1` (centres undefined), for which the signal enhancement is inactive: -20.1%.
The same measure for `CP(=O)(Nc1ccc2c(c1)OCCO2)Oc1ccccc1` (centres undefined): inactive: -15.1%; for `Cc1ccccc1NP(C)(=O)Nc1ccccc1C`: inactive: 9.56%.
For `CP(=O)(Nc1ccc(SC(F)(F)F)cc1)Oc1ccc(F)cc1` (centres undefined), the signal enhancement was inactive: -2.27%.
With `CCOP(C)(=S)SCC(=O)NC(C)(CC)C(=O)O` (centres undefined) the figure was inactive: -0.1%.
With `Cc1nc2ccc3ccccc3c2s1.O=[N+]([O-])c1cc([N+](=O)[O-])c(O)c([N+](=O)[O-])c1` the figure was inactive: 7.34%; with `O=[N+]([O-])c1cc([N+](=O)[O-])c(-n2nnc3ccccc32)c([N+](=O)[O-])c1`, inactive: -7.58%; with `COc1ccccc1OP(C)(=O)Nc1c(C)cccc1C` (centres undefined), inactive: -12.9%.
With `CN1CCCCC1COC(=O)C1(O)c2ccccc2CCc2ccccc21` (centres undefined) the figure was inactive: 4.79%; with `CP(=O)(Nc1ccc(SC(F)(F)F)cc1)Oc1ccccc1` (centres undefined), inactive: 0.38%.
As for `CCCOc1ccc(NP(C)(=O)Oc2ccc(Cl)cc2)cc1` (centres undefined), the signal enhancement was inactive: -12.1%.
The same measure for `CCOC(=O)C(CC)C1=NC(C)(C)Cc2ccccc21.O=[N+]([O-])c1cc([N+](=O)[O-])c(O)c([N+](=O)[O-])c1` (centres undefined): inactive: -12.2%.
The same measure for `CC1=NCCc2c1[nH]c1ccccc21.O=[N+]([O-])c1cc([N+](=O)[O-])c(O)c([N+](=O)[O-])c1`: inactive: -11.8%; for `Cc1ccc(C)c(NP(C)(=O)Oc2ccccc2)c1` (centres undefined): inactive: -13.8%; for `CP(=O)(Nc1cccc(Br)c1)Oc1ccccc1` (centres undefined): inactive: -2.77%.
Take `Cc1cc(C)cc(OP(C)(=O)Nc2ccccn2)c1` (centres undefined): the signal enhancement is inactive: -11.8%.
`CCOC(=O)c1ccc(NP(C)(=O)Oc2cc(C)cc(C)c2)cc1` (centres undefined): the signal enhancement is inactive: -9%.
With `Cc1cc(C)cc(OP(C)(=O)Nc2ccc(C)cc2C)c1` (centres undefined) the figure was inactive: 2.45%; with `CCN(CC)CCCOC(=O)C(O)(c1ccccc1)c1ccccc1`, inactive: -13.2%.
